From patent EP2041131B1, “AZAINDOLE DERIVATIVES WITH A COMBINATION OF PARTIAL NICOTINIC ACETYLCHOLINE RECEPTOR AGONISM AND DOPAMINE REUPTAKE INHIBITION” (Abbott Healthcare Products B.V., priority 2006, dated 2008) come the findings set out here.

The test relates to rat striatal slices. The test is described as follows: In vitro [^3H]-Dopamine release. The test is classed as cell-based. The note with it: K+ (10 mM) evoked release, compounds added at 10^-8 M and 10^-6 M, table does not say which concentration.

Regarding `c1cnc2[nH]cc(C[C@@H]3CCCN3)c2c1` (stereo in doubt) [Compound 97, reference compound], the “Functional activity release [^3H]-Dopamine % of control” value is listed as 122 % of control.
